# From US20030236190A1 (published 2003)
# B1: 434 (other, not shown: large carriers)
# chain: NNNNLGIEGRISEFIEVRAQPAMARGGGTFYEWFESALRKHGAGGGSGGSGGSGGSRGGGTFYEWFESALRKHGAGAAAGAPVPYPDPLEPRAA
# notes: MBP fusion; also called G3-12a-G3 (MBP fusion)
# B2: RB434 (other, not shown: large carriers)
# chain: NNNNLGIEGRISEFIEVRAQPAMARGGGTFYEWFESALRKHGAGGGSGGSGGSGGSRGGGTFYEWFESALRKHGAGAAAGAPVPYPDPLEPRAA
# notes: MBP fusion, uncleaved
# B3: RB430 (other, not shown: large carriers)
# chain: NNNNLGIEGRISEFIEGRDYKDDDDKFHENFYDWFVRQVSGGSGGSLDALDRLMRYFEERPSLGAPVPYPDPLEPR
# notes: MBP fusion, uncleaved; also called RB430 (MBP fusion, uncleaved)
# B4: 539 (peptide)
# peptide: MADYKDDDDKWLDQEWAWVQCEVYGRGCPSGGSGGSGSLDESFYDWFERQLGKKAAAGAPVPYPDPLEPRPG
# notes: recombinant dimer with tags at both ends; also called D8-6aa-RP9
# Tests used:
# [1] = target: human insulin receptor (HIR) (human, UniProt P06213 28-1382, limits assumed); test: Kd(HIR), insulin competition
# [2] = target: human insulin receptor (HIR) (human, UniProt P06213 28-1382, limits assumed); test: HIR Kd, Table 14; competition with 125I-insulin on solubilised HIR (method of Example 3, not restated for this table)
# [3] = target: T1, recombinant human IGF-1R (rhIGF-1R) (human, UniProt P08069 31-935); test: TR-FRET competition with b-20E2 for rhIGF-1R
# T1 construct: extracellular domain; Coated on plates in the TRF assay and europium-labelled (LANCE) in the TR-FRET assays; also called rhIGE-1R; Eu3+-rhIGF-1R
# [4] = target: T2, human insulin receptor (HIR) (human, UniProt P06213 28-1382, limits assumed); test: 125I-insulin displacement, solubilised HIR
# T2 construct: Detergent-solubilised receptor; The natural receptor is an alpha2-beta2 heterotetramer cleaved from one precursor
# [5] = target: human IGF-1 receptor (HIGF-1R) (human, UniProt P08069 31-1367); test: 125I-IGF-1 competition, solubilised HIGF-1R
# [6] = target: T3, soluble HIR ectodomain (sIR) (human, UniProt P06213-2 28-944, limits assumed); test: FP competition vs FITC-RP9, sIR
# T3 construct: extracellular domain
binder,measurement,setting,value
B1,Kd,[1],3200 nM
B2,Kd,[2],3200 nM
B3,Kd,[2],2100 nM
GGTVWPGYEWLRNA [E8],IC50,[3],175 nM
FHENFYGWFVRQVSKK [S116],Kd,[4],1400 nM
WSDFYSYFQGLD [S127],Kd,[4],1200 nM
LDALDRLMRYFEERPSL [S173],Kd,[4],1200 nM
CGGFHENFYDWFVRQVSKK [S227],Kd,[4],510 nM
QRNANFYDWFVAELG [S239],Kd,[4],1300 nM
RNANFYDWFVAELG [S240],Kd,[4],1400 nM
B4,Kd,[5],1500 nM
SFYDWFERQLG (also called truncated-(-GSLDE)RP9(-KK)) [S391],IC50,[6],119 nM
